# Yeast mating assay 1: variants of the scFv Ab-14

The measurements come from Engelhart et al. 2022 (doi:10.1038/s41597-022-01779-4) through the FLAb antibody collection.

Antigen: PDVDLGDISGINAS, a 14-residue peptide of the SARS-CoV-2 spike HR2 region.

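Phage display of a naive human antibody library on the peptide gave the parent. AAYL50 was designed without a model: most single CDR substitutions and a random sample of double and triple ones. Affinity was read by AlphaSeq, a pooled yeast mating assay with surface-displayed partners. After mating in shaken culture at 30 °C for 16 h, diploids were selected and their barcode pairs sequenced. Each replicate has its own calibration line, from reference interactions of the BCL2 family. There are three technical replicates.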

Each scFv is VH, a (GGGGS)3 linker, VL, as in the parent Ab-14, and differs from it in the CDRs of the light chain only.
VH: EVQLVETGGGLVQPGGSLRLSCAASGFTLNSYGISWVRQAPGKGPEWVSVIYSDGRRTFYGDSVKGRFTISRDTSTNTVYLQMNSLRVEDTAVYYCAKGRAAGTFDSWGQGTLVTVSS
VL: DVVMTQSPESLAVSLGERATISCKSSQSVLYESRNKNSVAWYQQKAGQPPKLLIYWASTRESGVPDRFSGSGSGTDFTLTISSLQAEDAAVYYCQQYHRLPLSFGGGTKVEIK

Sequences are complete VL domains. Scale: log10 of Kd in nM, estimated from mating counts; low values are strong binders. A pair that was not seen in that replicate is written "n.d."; this usually means weak binding, but a binder can also be missed. Empty control strains, which show no peptide, gave a signal in 18% of pairings with library AAYL50; the median was 4.19 and 95% of these signals were weaker than 2.99. No background was subtracted. Also given: how often the same scFv was detected with the empty control strains, with their mean in brackets.

VL | replicates, log10 nM | control signals
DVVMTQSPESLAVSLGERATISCKSSESVDYESKNKNSVAWYQQKAGQPPKLLIYWASTRESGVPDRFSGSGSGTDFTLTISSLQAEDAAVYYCQQYHRLPLSFGGGTKVEIK | 0.29 / 0.59 / 0.39 | 1/9 (3.68)
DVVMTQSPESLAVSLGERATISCKSSQSVLFESRNKNSVAWYQQKAGQPPKLLIYWYSTRESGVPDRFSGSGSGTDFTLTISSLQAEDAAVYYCQQPHRLPLSFGGGTKVEIK | n.d. / n.d. / n.d. | 0/9
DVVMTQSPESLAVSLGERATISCKSSQSVLYESRNDNSVAWYQQKAGQPPKLLIYWASKRESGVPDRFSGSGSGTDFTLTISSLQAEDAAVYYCQQYHRLPLSFGGGTKVEIK | 0.21 / 0.52 / 0.31 | 1/9 (3.63)
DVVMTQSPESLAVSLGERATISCKSGQSVLYESRNKQSVAWYQQKAGQPPKLLIYWASTKESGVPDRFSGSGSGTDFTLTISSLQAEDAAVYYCQQYHRLPLSFGGGTKVEIK | n.d. / n.d. / n.d. | 0/9
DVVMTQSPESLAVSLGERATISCKDSQSVLYESRNKNHVAWYQQKAGQPPKLLIYWASTRESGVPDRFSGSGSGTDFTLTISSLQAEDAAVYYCQQSHRLPLSFGGGTKVEIK | n.d. / 3.89 / 3.74 | 3/9 (4.61)
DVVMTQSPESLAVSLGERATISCKSSQSVLYEARNKNSVAWYQQKAGQPPKLLIYWASERESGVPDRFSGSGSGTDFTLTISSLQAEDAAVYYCQQYIRLPLSFGGGTKVEIK | 0.34 / 0.66 / 0.54 | 2/9 (5.02)
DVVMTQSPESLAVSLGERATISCKSSQSVLYESRNKNSVAWYQQKAGQPPKLLIYHASTRESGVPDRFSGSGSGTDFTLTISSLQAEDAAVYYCQQYHRLPCEFGGGTKVEIK | 0.34 / 0.70 / 0.67 | 2/9 (3.90)
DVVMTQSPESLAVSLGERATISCKSSGSVLQESRNKNSVAWYQQKAGQPPKLLIYWASTRESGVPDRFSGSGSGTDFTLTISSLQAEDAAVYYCQQYHRLPQSFGGGTKVEIK | 0.59 / 0.65 / 0.74 | 0/9
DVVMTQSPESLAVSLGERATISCKSSQSVLYESRNKNSNAWYQQKAGQPPKLLIYWASTRESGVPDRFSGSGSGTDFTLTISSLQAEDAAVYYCQQYHRLPLSFGGGTKVEIK | 3.45 / n.d. / n.d. | 1/9 (4.81)
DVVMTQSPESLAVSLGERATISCKSSHSVLYESRNKNSVAWYQQKAGQPPKLLIYWATTRESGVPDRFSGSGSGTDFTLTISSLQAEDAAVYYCQQYHRLPPSFGGGTKVEIK | n.d. / n.d. / n.d. | 1/9 (2.57)
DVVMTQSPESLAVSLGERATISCKSSQSVLYESRQKTSVAWYQQKAGQPPKLLIYWASTRESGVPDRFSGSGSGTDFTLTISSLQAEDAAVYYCQQYHRLWLSFGGGTKVEIK | 2.03 / 2.57 / 1.96 | 1/9 (3.59)
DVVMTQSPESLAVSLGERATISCKHSQSVLYESRNKNRVAWYQQKAGQPPKLLIYWASTRESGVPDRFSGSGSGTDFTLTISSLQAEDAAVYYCQQYHRLPLVFGGGTKVEIK | 2.79 / n.d. / 2.86 | 0/9
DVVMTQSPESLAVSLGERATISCKSSQSVLYKSRNKNRVAWYQQKAGQPPKLLIYWASTNESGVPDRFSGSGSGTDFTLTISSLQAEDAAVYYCQQYHRLPLSFGGGTKVEIK | n.d. / n.d. / n.d. | 2/9 (4.52)
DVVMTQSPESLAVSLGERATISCKSSQSVLYESRNKNSVAWYQQKAGQPPKLLIYYASTRNSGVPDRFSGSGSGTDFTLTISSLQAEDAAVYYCQQYWRLPLSFGGGTKVEIK | 1.41 / 1.26 / 1.23 | 4/9 (4.65)
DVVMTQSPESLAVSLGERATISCKCSQSVLYESRNPNGVAWYQQKAGQPPKLLIYWASTRESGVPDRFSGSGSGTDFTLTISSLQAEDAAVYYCQQYHRLPLSFGGGTKVEIK | 1.53 / 1.29 / 1.60 | 1/9 (3.81)

Top 2 of the variants detected in all replicates, tightest first:

{"VL": "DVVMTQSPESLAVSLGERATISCKSSQSVLYESRNDNSVAWYQQKAGQPPKLLIYWASKRESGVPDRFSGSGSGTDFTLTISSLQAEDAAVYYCQQYHRLPLSFGGGTKVEIK", "replicates, log10 nM": "0.21 / 0.52 / 0.31", "control signals": "1/9 (3.63)"}
{"VL": "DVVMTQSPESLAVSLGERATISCKSSESVDYESKNKNSVAWYQQKAGQPPKLLIYWASTRESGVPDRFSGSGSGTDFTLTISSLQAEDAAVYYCQQYHRLPLSFGGGTKVEIK", "replicates, log10 nM": "0.29 / 0.59 / 0.39", "control signals": "1/9 (3.68)"}

In this assay the parent's reference entry averaged 0.65; its copy inside this library read 1.68.